Results published in ChEMBL document CHEMBL3856218, “Polycyclic Polyprenylated Acylphloroglucinol Congeners from Hypericum scabrum” (J Nat Prod, 2016).

Chains of the proteins cited; added tags and fusions are not shown.
UniProt P31645, whole entry: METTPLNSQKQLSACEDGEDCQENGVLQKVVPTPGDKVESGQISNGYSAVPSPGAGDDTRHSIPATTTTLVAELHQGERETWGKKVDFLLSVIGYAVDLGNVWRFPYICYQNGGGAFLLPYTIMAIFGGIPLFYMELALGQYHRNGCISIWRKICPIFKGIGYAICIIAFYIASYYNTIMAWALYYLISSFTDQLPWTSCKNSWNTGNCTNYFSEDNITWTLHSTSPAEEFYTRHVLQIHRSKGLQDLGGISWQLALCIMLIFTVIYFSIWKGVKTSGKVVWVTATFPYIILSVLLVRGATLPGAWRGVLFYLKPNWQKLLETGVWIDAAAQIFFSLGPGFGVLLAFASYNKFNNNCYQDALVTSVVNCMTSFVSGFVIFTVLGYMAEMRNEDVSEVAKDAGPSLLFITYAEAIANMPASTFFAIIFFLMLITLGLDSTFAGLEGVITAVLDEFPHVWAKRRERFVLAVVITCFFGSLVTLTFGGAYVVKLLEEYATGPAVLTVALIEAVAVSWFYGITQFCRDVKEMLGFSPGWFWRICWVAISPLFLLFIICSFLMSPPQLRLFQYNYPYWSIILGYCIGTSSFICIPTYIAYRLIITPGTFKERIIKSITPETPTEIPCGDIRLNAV

Molecular target: Sodium-dependent serotonin transporter (Homo sapiens, UniProt P31645)
Experiment: Inhibition of serotonin transporter (unknown origin) assessed as suppression of synaptosomal uptake of serotonin

`CC(C)=CCC[C@]1(C)[C@@H](CC=C(C)C)C[C@]2(CC=C(C)C)C(=O)C(CC=C(C)C)=C(O)[C@@]1(C(=O)C(C)C)C2=O` was tested. Which IC50 did it give?
The IC50 was 2000 nM.
